## Cyclic peptide permeability, from CycPeptMPDB

Values of Kelly et al. 2021, doi:10.1021/jacs.0c06115, as listed in CycPeptMPDB.

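Lipid, pH, incubation time, direction and concentration are not recorded in the data file. Other peptides of the study may be missing here. Entries at the database's floor value (log10 P of -10) are not listed.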

PAMPA is the parallel artificial membrane permeability assay, which has no cells and reads passive diffusion.
Values are log10 P with P in cm/s, so -5 is more permeable than -7.

For CC(=O)N1CCC[C@H]1C(=O)N(C)[C@@H](CC(C)C)C(=O)N[C@@H]1C(=O)N[C@H](CC(C)C)C(=O)N(C)[C@H](CC(C)C)C(=O)N[C@H](CC(C)C)C(=O)N[C@@H](C)C(=O)N[C@H](CC(C)C)C(=O)N2CCC[C@@H]2C(=O)O[C@@H]1C the data give PAMPA -6.39 (log10 cm/s). For CC(=O)N1CCC[C@H]1C(=O)N(C)[C@@H](CC(C)C)C(=O)N[C@@H]1C(=O)N(C)[C@H](CC(C)C)C(=O)N(C)[C@H](CC(C)C)C(=O)N(C)[C@@H](CC(C)C)C(=O)N(C)[C@H](C)C(=O)N[C@H](CC(C)C)C(=O)N2CCC[C@H]2C(=O)O[C@@H]1C the data give PAMPA -5.10 (log10 cm/s). CC(=O)N1CCC[C@H]1C(=O)N(C)[C@H](CC(C)C)C(=O)N[C@@H]1C(=O)N[C@H](CC(C)C)C(=O)N[C@@H](CC(C)C)C(=O)N[C@H](CC(C)C)C(=O)N(C)[C@H](C)C(=O)N[C@@H](CC(C)C)C(=O)N2CCC[C@H]2C(=O)O[C@@H]1C has PAMPA -5.34 (log10 cm/s). Listed for CC(=O)N1CCC[C@@H]1C(=O)N(C)[C@@H](CC(C)C)C(=O)N[C@@H]1C(=O)N(C)[C@H](CC(C)C)C(=O)N[C@H](CC(C)C)C(=O)N(C)[C@H](CC(C)C)C(=O)N(C)[C@H](C)C(=O)N[C@H](CC(C)C)C(=O)N2CCC[C@@H]2C(=O)O[C@@H]1C: PAMPA -5.46 (log10 cm/s).

The entry for CC(=O)N1CCC[C@H]1C(=O)N(C)[C@H](CC(C)C)C(=O)N[C@@H]1C(=O)N[C@H](CC(C)C)C(=O)N[C@H](CC(C)C)C(=O)N(C)[C@H](CC(C)C)C(=O)N(C)[C@H](C)C(=O)N[C@H](CC(C)C)C(=O)N2CCC[C@H]2C(=O)O[C@@H]1C lists PAMPA -6.44 (log10 cm/s). CC(=O)N1CCC[C@H]1C(=O)N(C)[C@@H](CC(C)C)C(=O)N[C@@H]1C(=O)N(C)[C@@H](CC(C)C)C(=O)N[C@H](CC(C)C)C(=O)N(C)[C@@H](CC(C)C)C(=O)N(C)[C@@H](C)C(=O)N[C@@H](CC(C)C)C(=O)N2CCC[C@@H]2C(=O)O[C@@H]1C has PAMPA -6.35 (log10 cm/s). For CC(=O)N1CCC[C@@H]1C(=O)N(C)[C@@H](CC(C)C)C(=O)N[C@@H]1C(=O)N[C@H](CC(C)C)C(=O)N[C@H](CC(C)C)C(=O)N[C@H](CC(C)C)C(=O)N[C@@H](C)C(=O)N[C@@H](CC(C)C)C(=O)N2CCC[C@H]2C(=O)O[C@@H]1C the data give PAMPA -7.52 (log10 cm/s). For CC(=O)N1CCC[C@H]1C(=O)N[C@@H]1C(=O)N[C@H](CC(C)C)C(=O)N[C@H](CC(C)C)C(=O)N[C@H](CC(C)C)C(=O)N[C@H](CC(C)C)C(=O)N(C)[C@H](C)C(=O)N[C@@H](CC(C)C)C(=O)N2CCC[C@@H]2C(=O)O[C@@H]1C the data give PAMPA -5.07 (log10 cm/s).

CC(=O)N1CCC[C@H]1C(=O)N(C)[C@@H](CC(C)C)C(=O)N[C@@H]1C(=O)N[C@H](CC(C)C)C(=O)N(C)[C@@H](CC(C)C)C(=O)N(C)[C@H](CC(C)C)C(=O)N(C)[C@@H](C)C(=O)N[C@@H](CC(C)C)C(=O)N2CCC[C@H]2C(=O)O[C@@H]1C has PAMPA -5.34 (log10 cm/s). CC(=O)N[C@@H]1C(=O)N2CCC[C@H]2C(=O)N(C)[C@H](CC(C)C)C(=O)N(C)[C@H](CC(C)C)C(=O)N(C)[C@H](CC(C)C)C(=O)N(C)[C@H](CC(C)C)C(=O)N(C)[C@H](C)C(=O)N[C@@H](CC(C)C)C(=O)N2CCC[C@@H]2C(=O)O[C@@H]1C has PAMPA -5.10 (log10 cm/s). For CC(=O)N1CCC[C@@H]1C(=O)N(C)[C@@H](CC(C)C)C(=O)N[C@@H]1C(=O)N(C)[C@H](CC(C)C)C(=O)N[C@H](CC(C)C)C(=O)N[C@@H](CC(C)C)C(=O)N(C)[C@H](C)C(=O)N[C@@H](CC(C)C)C(=O)N2CCC[C@@H]2C(=O)O[C@@H]1C the data give PAMPA -6.18 (log10 cm/s). The entry for CC(=O)N1CCC[C@H]1C(=O)N(C)[C@H](CC(C)C)C(=O)N[C@@H]1C(=O)N[C@H](CC(C)C)C(=O)N(C)[C@H](CC(C)C)C(=O)N[C@@H](CC(C)C)C(=O)N[C@@H](C)C(=O)N[C@H](CC(C)C)C(=O)N2CCC[C@H]2C(=O)O[C@@H]1C lists PAMPA -5.90 (log10 cm/s).

CC(=O)N1CCC[C@H]1C(=O)N(C)[C@H](CC(C)C)C(=O)N[C@@H]1C(=O)N[C@H](CC(C)C)C(=O)N[C@H](CC(C)C)C(=O)N(C)[C@@H](CC(C)C)C(=O)N(C)[C@@H](C)C(=O)N[C@@H](CC(C)C)C(=O)N2CCC[C@H]2C(=O)O[C@@H]1C is reported with PAMPA -5.56 (log10 cm/s). CC(=O)N1CCC[C@H]1C(=O)N(C)[C@H](CC(C)C)C(=O)N[C@@H]1C(=O)N[C@@H](CC(C)C)C(=O)N(C)[C@H](CC(C)C)C(=O)N(C)[C@H](CC(C)C)C(=O)N(C)[C@@H](C)C(=O)N[C@@H](CC(C)C)C(=O)N2CCC[C@@H]2C(=O)O[C@@H]1C has PAMPA -5.49 (log10 cm/s). Listed for CC(=O)N1CCC[C@@H]1C(=O)N(C)[C@@H](CC(C)C)C(=O)N[C@@H]1C(=O)N[C@H](CC(C)C)C(=O)N[C@H](CC(C)C)C(=O)N[C@H](CC(C)C)C(=O)N(C)[C@@H](C)C(=O)N[C@H](CC(C)C)C(=O)N2CCC[C@@H]2C(=O)O[C@@H]1C: PAMPA -5.95 (log10 cm/s). CC(=O)N1CCC[C@H]1C(=O)N(C)[C@@H](CC(C)C)C(=O)N[C@@H]1C(=O)N[C@H](CC(C)C)C(=O)N[C@H](CC(C)C)C(=O)N[C@H](CC(C)C)C(=O)N(C)[C@H](C)C(=O)N[C@@H](CC(C)C)C(=O)N2CCC[C@H]2C(=O)O[C@@H]1C has PAMPA -6.24 (log10 cm/s).

Extract of 2 entries:

structure (SMILES)	PAMPA (log10 cm/s)
CC(=O)N1CCC[C@H]1C(=O)N(C)[C@H](CC(C)C)C(=O)N[C@@H]1C(=O)N[C@H](CC(C)C)C(=O)N[C@H](CC(C)C)C(=O)N(C)[C@@H](CC(C)C)C(=O)N(C)[C@@H](C)C(=O)N[C@@H](CC(C)C)C(=O)N2CCC[C@H]2C(=O)O[C@@H]1C	-5.56
CC(=O)N1CCC[C@H]1C(=O)N(C)[C@@H](CC(C)C)C(=O)N[C@@H]1C(=O)N[C@H](CC(C)C)C(=O)N[C@H](CC(C)C)C(=O)N[C@H](CC(C)C)C(=O)N(C)[C@H](C)C(=O)N[C@@H](CC(C)C)C(=O)N2CCC[C@H]2C(=O)O[C@@H]1C	-6.24